System: tMCAO D1066A KI mice
Assay: tMCAO ischemia model, infarct volume by TTC staining, D1066A KI mice
Conditions: 24 h after tMCAO

Question: For `C=CC1=C(C)/C(=C/c2[nH]c(Cc3[nH]c(/C=C4\NC(=O)C(C)=C4C=C)c(C)c3CCC(=O)O)c(CCC(=O)O)c2C)NC1=O` [bilirubin, Bilirubin], which “exacerbated ischemic brain injury by bilirubin in the tMCAO model” value is on record?
Answer: completely ablated

From publication PMC10191619, “Bilirubin gates the TRPM2 channel as a direct agonist to exacerbate ischemic brain damage” (Neuron, 2023)
